Target: T1, tankyrase-2 enzyme (Homo sapiens, UniProt Q9H2K2)
T1 construct: purchased BPS Bioscience 80578
Experiment: Inhibition test of tankyrase-2 enzyme (BPS Bioscience kit)
Format: biochemical
Conditions: tankyrase-2 enzyme 15 ng/well, 25° C. for 1 hour; read-out: IC50 (tankyrase-2 enzyme inhibitory activity)

The chains behind the UniProt entries cited, without tags or fusion partners. Residues count along the entry.
UniProt Q9H2K2, 849-1166: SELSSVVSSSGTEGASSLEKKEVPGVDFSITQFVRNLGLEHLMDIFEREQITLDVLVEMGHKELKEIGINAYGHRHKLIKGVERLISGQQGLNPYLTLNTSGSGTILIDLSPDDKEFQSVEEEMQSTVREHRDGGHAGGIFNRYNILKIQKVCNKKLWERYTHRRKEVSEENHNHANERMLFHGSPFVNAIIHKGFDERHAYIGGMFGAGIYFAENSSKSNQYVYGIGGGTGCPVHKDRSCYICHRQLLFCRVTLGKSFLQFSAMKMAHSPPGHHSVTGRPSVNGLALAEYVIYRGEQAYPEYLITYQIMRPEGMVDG

IC50: 2.53 nM
Compound: Cn1ncnc1[C@H]1c2n[nH]c(=O)c3cc(F)cc(c23)N[C@@H]1c1ccc(F)cc1 [BMN-673 (Talazoparib), Talazoparib]
